Source: patent US5872210A (priority 1995, dated 1999)
pKi: −log10 of the molar value.

Sequences of proteins named here, by UniProt entry; tags and fusion partners are left off. Residues count along the entry.
UniProt P00791, 60-385: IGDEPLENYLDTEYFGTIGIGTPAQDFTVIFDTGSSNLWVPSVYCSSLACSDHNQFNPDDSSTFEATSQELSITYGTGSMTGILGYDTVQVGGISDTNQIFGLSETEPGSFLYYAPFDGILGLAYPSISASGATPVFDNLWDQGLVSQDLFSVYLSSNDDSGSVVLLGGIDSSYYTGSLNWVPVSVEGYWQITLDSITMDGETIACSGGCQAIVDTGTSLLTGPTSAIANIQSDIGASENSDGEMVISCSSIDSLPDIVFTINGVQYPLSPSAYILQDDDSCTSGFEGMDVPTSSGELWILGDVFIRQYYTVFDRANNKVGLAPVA

Target: T1, Porcine pepsin (Sus scrofa, UniProt P00791)
T1 construct: porcine pepsinogen is converted to enzymatically active pepsin by loss of the first 44 N-terminal residues
Assay: Inhibition of pepsin (substrate II)
Type: biochemical
Details: pH 3.0
Protocol: HIV-1 protease was obtained and its active site concentration was determined at 25° C. Purified enzyme was stored as a 5-8 μM stock solution in 50 mM NaOAc (pH 5.0), 1 mM DTT, 1 mM EDTA, 0.05% reduced Triton X-100 at -80° C. Porcine pepsin was prepared as 1-2 mg/ml in 50 mM formic acid (pH 3.0). The peptide concentrations were adjusted for their protein content.
HIV-1 protease activity was measured at 25° C. using substrate I (Lys-Ala-Arg-Val-Nle-Phe (NO2) -Glu-Ala-Nle-NH2 wherein Nle is norleucine and Phe (NO2) is 4-nitrophenylalamine). In a typical assay, 2.5 μl of enzyme was added to 97.5 μl of buffer and 2.5 mM DTT in the presence or absence of varying concentrations of inhibitor. The reaction was initiated by the addition of 10 μl of a 4 mM solution of substrate I in water and monitored by following the decrease in absorption at […] in a 100 μl spectrophotometric cell. Pepsin was assayed using substrate II (Phe-Gly-His-Phe(NO2)-Phe-Ala-PheOCH3). The reaction was monitored by following the decrease in absorbance at 269 nm in a final volume of 110 μl of 50 mM formate buffer, pH 3.0, containing 150 mM and 160 μM enzyme and substrate, respectively, at 25° C. Concentrations of substrate solutions were determined spectrophotometrically at […].
Such selective inhibition facilitates treatment of HIV infected mammalian cells.

SMILES: CC(C)C[C@H](NC(=O)[C@H](CC(=O)O)NC(=O)[C@@H](N)CCC(=O)O)C(=O)O [Peptide 4, Glu--Asp--Leu]
- pKi: 2.12
